Drawing on PubChem BioAssay AID1298 (SRMLSC, 2008), this text covers RAM network inhibition for 5 molecules.

This is a selection; strong and weak results do not stand in their true shares. Active and inactive are the calls of the source.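 Rule for the calls: active = RAM network inhibition above 8.4% in each of two replicates, 3 SD over the compound average; inconclusive = above 8.4% inhibition in only one replicate; inactive = 8.4% inhibition or less in each replicate.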

A short description of the experiment: RAM signaling pathway blockade in yeast – S. cerevisiae, Pdr1DBD-CYC8 efflux-inhibited sensitized strain, primary screen (AID 1298).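 Note: 0% = DMSO untreated cells without growth and 100% = 10 µM 1-NA-PP1 full growth; higher means more yeast growth rescued from 5-FOA killing.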 The settings on record: S. cerevisiae cbk1-as DSE1-URA3 strain, 5-FOA growth OD615, 2 d; at 50 µM; active compounds read high.
Regarding `CP(=O)(Nc1ccc2c(c1)OCCO2)Oc1ccccc1` (stereo not given), the RAM network inhibition is inactive: 1.35%.
Regarding `CP(=O)(Oc1ccccc1)N1CCOC1=O` (stereo not given), the RAM network inhibition is inactive: -0.12%.
To `CP(=O)(NC(=O)Nc1ccccc1)Oc1ccccc1` (stereo not given) belongs inactive: -0.21%; to `Cc1ccc(NP(C)(=O)Oc2ccccc2)c(C)c1` (stereo not given), inactive: 0.95%.
With `Cc1ccc(C)c(NP(C)(=O)Oc2ccccc2)c1` (stereo not given), the RAM network inhibition is inactive: 1.97%.
